Experimental data as given in US20210079423.

How the values were obtained:
[1] = system: PR407: SP(HSA)-PTEN-L-cathepsin B*-HSA-6xHis (secreted form)
[2] = system: PR408: SP(HSA)-PTEN-L-cathepsinB**-HSA-6xHis (secreted form)

“active CATSB (Cathepsin B; BioVision #7580-5)” was tested, and the “in vitro cleavage of the fusion, share released as PTEN-L-like fragment” value [1] was “CATSB cleaved PR407 (SEQ ID NO:131; cDNA SEQ ID NO:159) and PR408 (SEQ ID NO:132; cDNA SEQ ID NO:160) to release a PTEN-L-like fragment at similar amounts (about 20% of total)” and the “in vitro cleavage of the fusion, share released as PTEN-L-like fragment” value [2] was “CATSB cleaved PR407 (SEQ ID NO:131; cDNA SEQ ID NO:159) and PR408 (SEQ ID NO:132; cDNA SEQ ID NO:160) to release a PTEN-L-like fragment at similar amounts (about 20% of total)”.
